Data as given in patent US12558350B2, “Compositions and methods for treatment” (Bausch + Lomb Ireland Limited, priority 2005, dated 2026).

Chains of the proteins cited; added tags and fusions are not shown. Residues count along the entry.
UniProt P05107, 23-769 limits assumed: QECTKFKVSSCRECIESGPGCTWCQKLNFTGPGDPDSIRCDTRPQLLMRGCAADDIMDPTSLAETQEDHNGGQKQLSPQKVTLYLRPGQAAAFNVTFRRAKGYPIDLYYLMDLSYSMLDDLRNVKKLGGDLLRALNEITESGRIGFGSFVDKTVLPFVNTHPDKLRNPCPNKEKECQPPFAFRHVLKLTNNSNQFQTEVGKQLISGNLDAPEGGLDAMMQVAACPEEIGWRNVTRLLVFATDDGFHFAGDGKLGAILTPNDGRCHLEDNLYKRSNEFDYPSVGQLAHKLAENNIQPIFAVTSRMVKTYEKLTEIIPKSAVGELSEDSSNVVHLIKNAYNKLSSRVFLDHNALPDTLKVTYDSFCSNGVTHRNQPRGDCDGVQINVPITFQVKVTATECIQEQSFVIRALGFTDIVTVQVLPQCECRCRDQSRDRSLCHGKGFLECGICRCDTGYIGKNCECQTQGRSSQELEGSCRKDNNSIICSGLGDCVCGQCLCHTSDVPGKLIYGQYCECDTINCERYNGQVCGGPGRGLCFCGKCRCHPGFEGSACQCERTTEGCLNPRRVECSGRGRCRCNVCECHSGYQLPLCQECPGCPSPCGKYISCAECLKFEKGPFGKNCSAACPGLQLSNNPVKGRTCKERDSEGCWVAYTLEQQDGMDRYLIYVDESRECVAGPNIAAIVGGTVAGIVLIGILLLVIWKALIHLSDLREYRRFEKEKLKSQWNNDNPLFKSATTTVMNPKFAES
UniProt P20701, 26-1170 limits assumed: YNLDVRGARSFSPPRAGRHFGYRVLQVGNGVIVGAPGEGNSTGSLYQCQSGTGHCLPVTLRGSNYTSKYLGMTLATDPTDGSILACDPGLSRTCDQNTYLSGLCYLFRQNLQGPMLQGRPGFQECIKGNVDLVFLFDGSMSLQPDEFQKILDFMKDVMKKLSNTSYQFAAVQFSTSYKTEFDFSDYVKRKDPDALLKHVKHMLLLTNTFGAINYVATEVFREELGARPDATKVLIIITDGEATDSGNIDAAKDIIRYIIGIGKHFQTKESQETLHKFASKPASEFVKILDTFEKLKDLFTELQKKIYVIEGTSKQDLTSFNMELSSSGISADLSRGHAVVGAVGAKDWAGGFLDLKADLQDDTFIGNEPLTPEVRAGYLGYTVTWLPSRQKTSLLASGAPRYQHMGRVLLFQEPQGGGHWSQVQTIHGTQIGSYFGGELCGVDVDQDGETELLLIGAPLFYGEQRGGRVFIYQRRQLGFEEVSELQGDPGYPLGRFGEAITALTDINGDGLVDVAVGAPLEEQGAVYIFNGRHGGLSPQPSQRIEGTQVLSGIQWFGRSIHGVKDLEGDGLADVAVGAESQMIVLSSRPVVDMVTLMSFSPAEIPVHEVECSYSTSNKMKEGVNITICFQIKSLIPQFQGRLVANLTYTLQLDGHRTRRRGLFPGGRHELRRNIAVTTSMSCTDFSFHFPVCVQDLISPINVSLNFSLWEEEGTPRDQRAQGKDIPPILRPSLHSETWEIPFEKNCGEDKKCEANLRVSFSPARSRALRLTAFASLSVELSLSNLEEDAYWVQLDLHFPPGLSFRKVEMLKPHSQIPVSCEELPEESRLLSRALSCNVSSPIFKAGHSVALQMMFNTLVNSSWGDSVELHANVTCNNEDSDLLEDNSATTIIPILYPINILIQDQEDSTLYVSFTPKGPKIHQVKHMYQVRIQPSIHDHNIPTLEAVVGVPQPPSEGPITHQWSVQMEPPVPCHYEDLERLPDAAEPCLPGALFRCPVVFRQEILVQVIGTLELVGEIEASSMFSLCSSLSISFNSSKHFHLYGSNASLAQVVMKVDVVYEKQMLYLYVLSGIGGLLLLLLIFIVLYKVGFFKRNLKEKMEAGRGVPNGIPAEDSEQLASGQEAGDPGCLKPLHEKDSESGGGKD

Legend:
[1] = tested on: LFA-1 induced lymphocyte proliferation; details: read-out: IC50, inhibition of LFA-1 induced lymphocyte proliferation; in vitro; Gadek et al. 2002; cited from earlier work
LFA-1/ICAM-1 [2] = molecular target: T1, LFA-1/ICAM-1 (Homo sapiens, UniProt P05107+P20701); assay: LFA-1/ICAM-1 ELISA, antagonist competition; assay type: binding; details: FIG. 8A
LFA-1/ICAM-1 [3] = molecular target: T1, LFA-1/ICAM-1; assay: LFA-1/ICAM-1 ligand binding ELISA with Schild analysis
LFA-1 [4] = molecular target: T2, LFA-1 (Homo sapiens, UniProt P05107+P20701); assay: LFA-1/small molecule ligand binding ELISA; details: FIG. 10B, D, F
LFA-1 [5] = molecular target: T2, LFA-1; assay: Photocrosslinking of tritium-labeled compound 5 to LFA-1, SDS-PAGE and autoradiography; details: 290 μM compound 3 during incubation; gel filtered
LFA-1 [6] = molecular target: T2, LFA-1; assay: LFA-1/small molecule ELISA, antagonist competition with compound 2B; details: read-out: IC50, inhibition of binding of compound 2B to LFA-1; 25 nM compound 2B; FIG. 8B

O=C(NC[C@H](NC(=O)c1c(Cl)cc(CCC(O)c2cccc(O)c2)cc1Cl)C(=O)O)c1cccs1 (stereo partly drawn)
IC50 [1]: 3 nM

NCCCCCC(=O)NCCCC[C@H](NC(=O)c1ccc(C(=O)NCc2cccc(O)c2)cc1Cl)C(=O)O
IC50 relative to that of compound 3, inhibition of ICAM-1-Ig binding to LFA-1 (LFA-1/ICAM-1 [2]): approximately 10 fold

NC(=O)C[C@H](NC(=O)c1ccc(C(=O)NCc2cccc(O)c2)cc1Cl)C(=O)O
effect of increasing antagonist concentration on ICAM-1-Ig binding curves (LFA-1/ICAM-1 [3]; FIG. 10A, C, E): shifted the binding of ICAM-1-Ig to higher EC50 values with minimal variation in maximal ICAM-1-Ig binding | slope of Schild regression (LFA-1/ICAM-1 [3]; ligand ICAM-1-Ig, FIG. 11): 1.24 | y-intercept of Schild regression (LFA-1/ICAM-1 [3]; ligand ICAM-1-Ig, FIG. 11): 10.9 | effect of increasing antagonist concentration on compound 2B binding curves (LFA-1 [4]): shifted the compound 2B binding curves to higher EC50 values with no reduction in maximal binding | effect on incorporation of tritium from compound 5 into the αL subunit (LFA-1 [5]): substantially reduced | IC50 (LFA-1/ICAM-1 [2]; read-out: IC50, inhibition of binding of ICAM-1-Ig to LFA-1, MnCl2): 2 nM | IC50 (LFA-1 [6]): 3 nM
